This assay concerns the target T1, CCK B (Mus musculus, UniProt P56481).
T1 construct: from tissue; host or cells: cerebral cortex membranes of male CFLP mice
T1 sequence (P56481 1-453): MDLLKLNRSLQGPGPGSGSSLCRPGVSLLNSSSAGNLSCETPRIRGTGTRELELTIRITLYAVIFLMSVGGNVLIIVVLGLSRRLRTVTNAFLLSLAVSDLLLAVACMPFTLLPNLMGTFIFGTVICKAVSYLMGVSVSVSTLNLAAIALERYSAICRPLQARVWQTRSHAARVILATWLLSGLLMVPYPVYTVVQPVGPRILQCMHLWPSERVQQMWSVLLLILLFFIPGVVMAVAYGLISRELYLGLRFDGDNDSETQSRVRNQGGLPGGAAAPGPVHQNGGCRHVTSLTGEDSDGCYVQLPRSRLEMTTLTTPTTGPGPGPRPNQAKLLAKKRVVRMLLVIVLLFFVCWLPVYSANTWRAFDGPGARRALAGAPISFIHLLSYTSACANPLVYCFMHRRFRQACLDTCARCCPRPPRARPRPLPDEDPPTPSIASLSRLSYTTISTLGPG
In words: CCK receptor binding screening test, displacement of tritiated-pentagastrin from mouse cerebral cortical membranes. As to conditions: Ki by Cheng-Prusoff; 2 nM tritiated-pentagastrin; mouse cerebral cortex membranes; read-out: Binding Affinity CCK B. On the procedure:
The biological activity of compounds of the present invention was evaluated employing an initial screening test which rapidly and accurately measured the binding of the tested compound to known CCK receptor sites. […] (See Hays et al, Neuropeptides 1:53-62, 1980; and Satuer et al, Science 208:1155-1156, 1980.
In this screening test, the cerebral cortices taken from male CFLP mice weighing between 30-40 g were dissected on ice, weighed, and homogenized in 10 volumes of 50 mM Tris-HCl buffer (pH 7.4 at 0°-4° C.). The resulting suspension was centrifuged, the supernate was discarded, and the pellet was washed by resuspension in Tris-HCl buffer followed by recentrifugation. […]
Following incubation, radioactivity bound to membranes was separated from that free in solution by rapid filtration through Whatman GF/B filters and washed three times with 4 mL of ice cold Tris-HCl buffer. Filters from samples incubated with tritiated-pentagastrin were placed in polyethylene vials with 4 mL of scintillation cocktail, and the radioactivity was estimated by liquid scintillation spectrometry (efficiency 47-52%). […]
In displacement experiments, inhibition curves were analyzed by either logit-log plots or the iterative curve fitting computer program ALLFIT (DeLean, Munson and Redbard, 1978) to provide estimates of the IC50 and nH (apparent Hill coefficient) values). […]

As to “Methyl N-[α-methyl-N-[(tricyclo[3.3.1.1^3,7 ]dec-2-yloxy)carbonyl]]-D-tryptophyl]-β-methionine [Example 10]”, the Ki turned out to be 41 nM.
